Laboratory results: US12435128B2, “Method for predicting therapeutic effect of LSD1 inhibitor based on expression of INSM1” (TAIHO PHARMACEUTICAL CO., LTD., priority 2017, dated 2025)

Tests used:
Format in all cases: cell-based
[1] = tested on: HEL cells (human acute myelocytic leukemia cell lines); assay: Cell-growth inhibition test: HEL cells; settings: read-out: IC50 (nM), Cell-Growth Inhibition Test: HEL Cells
Protocol: (§1) Under the following conditions, an in vitro cell-growth inhibition test was performed with respect to HEL cells (human acute myelocytic leukemia cell lines), NCI-H1417 cells (human small-cell lung cancer cell lines), and NCI-H146 cells (human small-cell lung cancer cell lines).
(§2) The cells with the Example compound or with dimethylsulfoxide alone were cultured at 37° C. in a 5% carbon-dioxide-containing incubator for 5 days (HEL cells) or 10 days (NCI-H1417 cells and NCI-H146 cells). After culture, the plate was allowed to stand at room temperature for 30 minutes, and 100 μL of the supernatant was removed from each well to leave 100 μL of the cell culture solution. To each well containing the remaining 100 μL of the cell culture solution, the same amount of CellTiter-Glo 2.0 Assay (Promega, Cat #: G9242) was added. The microplate was shaken with a plate mixer for 1 minute and then allowed to stand in a dark place for 10 minutes. Thereafter, the luminescence intensity of viable cells in each well was measured using a microplate reader (PerkinElmer, EnSpire). […] Cell growth rate(%)=T/C×100 • T: The luminescence intensity in a well to which the test compound was added (count per second) • C: The luminescence intensity in a well to which dimethylsulfoxide alone was added (count per second)

[2] = tested on: NCI-H1417 cells (human small-cell lung cancer cell lines); assay: Cell-growth inhibition test: NCI-H1417 cells; settings: NCI-H1417, read-out: IC50 (nM), Cell-Growth Inhibition Test: NCI-H1417 Cells
Protocol: as §1, §2

[3] = tested on: NCI-H146 cells (human small-cell lung cancer cell lines); assay: Cell-growth inhibition test: NCI-H146 cells; settings: NCI-H146, read-out: IC50 (nM), Cell-Growth Inhibition Test: NCI-H146 Cells
Protocol: as §1, §2

Row | SMILES | IC50 [2] [nM] | further results
1 | COCCc1ccc(-c2ccc(C(=O)N3[C@H]4CC[C@@H]3[C@H](N)C4)cc2-c2ccc(C#N)c(F)c2)c(F)c1 (relative stereo) [Example 143, 4-[5-[(1S,3R,4R)-rel-3-amino-7-azabicyclo[2.2.1]heptane-7-carbonyl]-2-[2-fluoro-4-(2-methoxyethyl)phenyl]phenyl]-2-fluoro-benzonitrile] | – | IC50 [1]: 0.06 nM
2 | CC(C)(O)Cc1ccc(-c2ccc(C(=O)N3[C@@H]4CC[C@H]3[C@@H](N)C4)cc2-c2ccc(C#N)c(F)c2)c(F)c1 (relative stereo) [Example 193, 5′-((1S,2S,4R)-rel-2-amino-7-azabicyclo[2.2.1]heptane-7-carbonyl)-2″,3-difluoro-4″-(2-hydroxy-2-methylpropyl)-[1,1′:2′,1″-terphenyl]-4-carbonitrile] | 8.66 | –
3 | CC(C)(O)Cn1nnc2cc(-c3ccc(C(=O)N4[C@H]5CC[C@@H]4[C@H](N)C5)cc3-c3ccc(C#N)c(F)c3)c(F)c(C3CC3)c21 (relative stereo) [Example 278, 5′-((1R,2R,4S)-rel-2-amino-7-azabicyclo[2.2.1]heptane-7-carbonyl)-2′-(7-cyclopropyl-6-fluoro-1-(2-hydroxy-2-methylpropyl)-1H-benzo[d][1,2,3]triazol-5-yl)-3-fluoro-[1,1′-biphenyl]-4-carbonitrile] | – | IC50 [3]: 6.16 nM
4 | Cn1nnc2cc(-c3ccc(C(=O)N4[C@@H]5CC[C@H]4[C@@H](N)C5)cc3-c3ccc(C#N)c(F)c3)c(F)c(F)c21 (single isomer, unassigned; isomer-b) [Example 175] | 0.8 | –
